The data set relates to MC38 cells. Particulars: experimentally determined, 72 h.

SMILES strings stand for the structures.

`O=C1[O][Pt]2([NH][C@@H]3CCCC[C@H]3[NH]2)[O]C1=O` [OXA, oxaliplatin] yielded a non-cytotoxic concentration range of 0.001 to 0.03 µM.

Source of the values: US20260266828A1, “BIOMARKERS FOR PREDICTING CANCER TREATMENT EFFICACY” (Arcus Biosciences, Inc., priority 2023, published 2026).
